Assay results reported in US20230235090A1 (HARBOUR BIOMED US, published 2023).
Each block holds one binder with its values, some of them ahead of it.

Target: T1, cynomolgus monkey 4-1BB (cynomolgus monkey)
T1 construct: whole, on cells; also called CHO-K1-cyno 4-1BB; CHO-K1/cyno4-1BB
Assay: FACS, CHO-K1/cyno 4-1BB cells [C]

EC50: 250 pM
Maximum MFI: 16800 MFI
B1: PR004161 (bispecific antibody, human IgG1, kappa, L234A L235A)
light: not shown
heavy: not shown
chain: EVQLVESGGGVVQPGGSLRLSCAASGFTFSNYAMTWVRQAPEKGLEWVSSISGSGVSTYYADSVKGRFTISRDNSKNTLYLQMTRLTAEDTAVYFCAKEGSSETDDHYYNVDVWGQGTTVTVSSGGGGSGGGGSGGGGSEVQLVESGGGVVQPGGSLRLSCAASGFTFSNYAMTWVRQAPEKGLEWVSSISGSGVSTYYADSVKGRFTISRDNSKNTLYLQMTRLTAEDTAVYFCAKEGSSETDDHYYNVDVWGQGTTVTVSSASGGGGSGGGGSGGGGSEVQLVESGGGVVQPGGSLRLSCAASGFTFSNYAMTWVRQAPEKGLEWVSSISGSGVSTYYADSVKGRFTISRDNSKNTLYLQMTRLTAEDTAVYFCAKEGSSETDDHYYNVDVWGQGTTVTVSSASEPKSSDKTHTCPPCPAPEAAGGPSVFLFPPKPKDTLMISRTPEVTCVVVDVSHEDPEVKFNWYVDGVEVHNAKTKPREEQYNSTYRVVSVLTVLHQDWLNGKEYKCKVSNKALPAPIEKTISKAKGQPREPQVCTLPPSREEMTKNQVSLSCAVKGFYPSDIAVEWESNGQPENNYKTTPPVLDSDGSFFLVSKLTVDKSRWQQGNVFSCSVMHEALHNHYTQKSLSLSPGK

EC50: 645 pM
Maximum MFI: 27200 MFI
B2: PR004160 (bispecific antibody, human IgG1, kappa, L234A L235A)
light: not shown
heavy: not shown
chain: EVQLVESGGGVVQPGGSLRLSCAASGFTFSNYAMTWVRQAPEKGLEWVSSISGSGVSTYYADSVKGRFTISRDNSKNTLYLQMTRLTAEDTAVYFCAKEGSSETDDHYYNVDVWGQGTTVTVSSGGGGSGGGGSGGGGSEVQLVESGGGVVQPGGSLRLSCAASGFTFSNYAMTWVRQAPEKGLEWVSSISGSGVSTYYADSVKGRFTISRDNSKNTLYLQMTRLTAEDTAVYFCAKEGSSETDDHYYNVDVWGQGTTVTVSSASEPKSSDKTHTCPPCPAPEAAGGPSVFLFPPKPKDTLMISRTPEVTCVVVDVSHEDPEVKFNWYVDGVEVHNAKTKPREEQYNSTYRVVSVLTVLHQDWLNGKEYKCKVSNKALPAPIEKTISKAKGQPREPQVCTLPPSREEMTKNQVSLSCAVKGFYPSDIAVEWESNGQPENNYKTTPPVLDSDGSFFLVSKLTVDKSRWQQGNVFSCSVMHEALHNHYTQKSLSLSPGK
